Source: US20080305099

System: Aβ40 of cerebral cortex fractions (soluble Aβ40 and insoluble Aβ40)

Substance: recombinant GCP-II protein purified from insect cells (Sf21)
- reduction of insoluble Aβ40 after co-culture with rGCP-II: rGCP-II reduced insoluble Aβ40 by 35%
